Measured values reported in patent publication US7348402B2, “Antimicrobial peptide, its analogs and antimicrobial composition comprising them” (priority 2002, dated 2008).

System: human red blood cells (hRBC)
Experiment: Hemolytic activity on human red blood cells
Assay type: cell-based
Conditions: peptide 200 μg/ml, 1 h at 37° C.; 0.2% Triton X-100 set to 100% hemolysis
Procedure: After separating the precipitated human red blood cells (hRBC) from 3 ml of human blood, they were washed with PBS (phosphate buffered saline) and diluted to make the total volume of 20 ml. In 190 μl of the prepared hRBC solution, 10 μl of each peptide sample (4 μg/μl ) prepared in Example 1 was added to make the final concentration of 200 μg/ml, reacted for 1 h at 37° C. and centrifuged for 5 min at 4000 rpm. […] The absorbance of the sample treated with 0.2% Triton X-100 was set to represent 100% hemolysis and the percent (%) hemolysis of each sample was relatively calculated from each measured absorbance, as shown in Table 3.

CC[C@H](C)[C@H](NC(=O)CN)C(=O)NCC(=O)N[C@@H](C)C(=O)N[C@H](C(=O)N[C@@H](CC(C)C)C(=O)N[C@@H](CCCCN)C(=O)N[C@H](C(=O)N[C@@H](CC(C)C)C(=O)N[C@H](C(=O)N[C@H](C(=O)NCC(=O)N[C@@H](CC(C)C)C(=O)N1CCC[C@H]1C(=O)N[C@@H](C)C(=O)N[C@@H](CC(C)C)C(=O)N[C@H](C(=O)N[C@@H](CO)C(=O)N[C@@H](Cc1c[nH]c2ccccc12)C(=O)N[C@H](C(=O)N[C@@H](CCCCN)C(=O)N[C@@H](CCCNC(=N)N)C(=O)N[C@@H](CCCCN)C(=O)N[C@@H](CCCNC(=N)N)C(=O)N[C@@H](CCC(N)=O)C(=O)N[C@@H](CCC(N)=O)C(N)=O)[C@@H](C)CC)[C@@H](C)CC)[C@@H](C)O)[C@@H](C)O)C(C)C)C(C)C [Melittin, melittin]
% hemolysis: 99%
